Biological target: T1, Hyp402-ODD target peptide of HIF-1α
T1 chain: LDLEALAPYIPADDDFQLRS
Assay: TAMRA fluorescence binding assay (fluorescence at 580 nm)
Details: chain shown with the change, pVHL protein concentration 500 nM, value read at the highest peptide concentration point (x est. 5e5 on the printed axis, plateau), read off a plot

response (FU (arbitrary units)) (in the presence of Arginine, parent: est. 2.4): 0.06
response (FU (arbitrary units)) (no Arginine, parent: est. 2.2): 0.02
B1: von Hippel-Lindau tumor suppressor protein (pVHL), wild type, 19 kDa form, P40337 Y98H (protein)
chain: MEAGRPRPVLRSVNSREPSQVIFCNRSPRVVLPVWLNFDGEPQPHPTLPPGTGRRIHSYRGHLWLFRDAGTHDGLLVNQTELFVPSLNVDGQPIFANITLPVYTLKERCLQVVRSLVKPENYRRLDIVRSLYEDLEDHPNVQKDLERLTQERIAHQRMGD
